Measured affinities in a library of Ab-14 heavy chain variants

From the AlphaSeq antibody data of Li et al. 2023 (doi:10.1038/s41467-023-39022-2), copy in the FLAb collection.

Binding partner: SARS-CoV-2 spike HR2 peptide, sequence PDVDLGDISGINAS.

Parent scFv Ab-14: VH joined to VL by a (GGGGS)3 linker. Changes lie in the heavy chain CDRs alone.
VH: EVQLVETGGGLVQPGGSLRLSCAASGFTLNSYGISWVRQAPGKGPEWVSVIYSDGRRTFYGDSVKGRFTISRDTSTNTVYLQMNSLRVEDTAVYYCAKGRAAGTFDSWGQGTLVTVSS
VL: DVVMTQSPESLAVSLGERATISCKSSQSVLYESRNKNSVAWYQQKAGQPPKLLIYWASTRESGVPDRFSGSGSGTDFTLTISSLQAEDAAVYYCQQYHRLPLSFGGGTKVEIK

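Phage display of a naive human antibody library on the peptide gave the parent. Designed CDR sequences, proposed from the first random library and measured here. Their group label is 14H_GP_HC (GP: Gaussian process model; HC: hill climbing; a sequence that several methods proposed may carry one label only). Affinity was read by AlphaSeq, a pooled yeast mating assay with surface-displayed partners. The frequency of each diploid, read from paired DNA barcodes, reflects how well the two displayed proteins bind. Read counts were normalised to the haploid input and turned into Kd by a linear fit to BCL2-family pairs of known affinity, for each replicate. Each pool was mated in six replicate cultures.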

The parent's heavy chain CDRs are GFTLNSYGIS, VIYSDGRRTFYGDSVK, GRAAGTFDS; each variant's own CDRs replace them letter for letter.
Numbers give log10(Kd / nM), so 0 is 1 nM and 3 is 1 µM. Smaller is tighter.
Where no diploid with the target was found in that replicate, the entry reads "nd": below detection, most likely a poor binder, though not proof of it.

The variant GFTLNEYGIS / VIYSDGRRTFYSDDVK / GRTAGTFDS gave 0.01, -0.16, -0.15, 0.08, -0.17, 0.00 (controls 1 of 18).
The variant GFTLNSYGIS / VIYADGKRTFYGDQVK / GRAAGTFKS gave nd, nd, nd, nd, nd, nd (controls 0 of 18).
The variant GFQLNSYGIS / VIYADGRRTFYGDQVK / GRAAGTFKS gave nd, nd, nd, nd, nd, nd (controls 0 of 18).
The variant GFTLNSYGIS / VIYSDGRRTFYQDSVK / GQVAGKFDS gave nd, nd, nd, nd, nd, nd (controls 0 of 18).
The variant GFTLESYGIS / VIYADGRRTFYGDGVK / GRAAGTFDS gave 1.04, nd, nd, 1.07, 0.48, nd (controls 0 of 18).
The variant GFTLNEYGIS / VIYSDGRRTFYQDSVK / GRAAVTFDV gave 1.48, 0.89, 0.78, 0.74, 0.87, 0.26 (controls 0 of 18).
The variant GFTLNSYGIS / VIYSDGRRTFYDDSVK / GLNAGTFDS gave 0.01, nd, 0.67, 0.33, nd, 1.22 (controls 0 of 18).
The variant GFNLNNYGIS / VIYSDGRRTFYSDSVK / GRAAGTFDS gave 0.34, -0.16, 0.31, -0.37, 0.55, -0.12 (controls 0 of 18).
The variant GFNLNSYGIS / VIYSDGRRTFYMDSVK / GQLAGTFDS gave nd, 0.65, nd, 1.09, 0.47, 1.22 (controls 0 of 18).
The variant GFTLNEYGIS / VIYSDGRRTFYGDSVK / GRAAGTFWW gave nd, nd, nd, nd, nd, nd (controls 1 of 18).
The variant GFTLKSYGIS / VIYSDGRRTFYDDSVK / GKTAGTFDS gave nd, nd, 1.26, nd, 3.37, 1.23 (controls 0 of 18).
The variant GFDLNSYGIS / VIYSDGRRTFYGDSVK / GRIAGTFKS gave 2.29, 2.13, 2.91, nd, 2.05, 2.67 (controls 0 of 18).
The variant GFSLNQYGIS / VIYSDGRRTFYSDSVK / GRAAVTFDS gave nd, nd, nd, nd, nd, nd (controls 1 of 18).
The variant GFTLNEYGIS / VIYSDGRRTFYGDSVK / GRMAGTFDM gave nd, nd, nd, nd, nd, nd (controls 0 of 18).
The variant GFGLNDYGIS / VIYSDGRRTFYIDTVK / GNAAGTFDS gave 0.47, 0.89, 0.68, 1.08, 1.59, 0.48 (controls 0 of 18).
The variant GFDLNSYGIS / VIYSDGRRTFYDDSVK / GKLAGTFDS gave 0.23, -0.17, -0.60, 0.44, 0.33, -0.62 (controls 1 of 18).
The variant GFDLNSYGIS / VIYSDGRRTFYSDSVK / GMAGGTFDS gave 1.64, 2.20, 1.07, 0.68, 2.98, 1.48 (controls 0 of 18).
The variant GFTLDSYGIS / VIYSDGRRTFYGDSVK / GRAAGTFTQ gave nd, nd, nd, nd, nd, nd (controls 0 of 18).
The variant GFTLNSYGIS / VIYADGRRTFYGDQVK / GRVAGTFKS gave nd, nd, nd, nd, nd, nd (controls 0 of 18).
The variant GFDLNSYGIS / VIYSDGRRTFYRDSVK / GQLAGTFDS gave 0.34, 0.44, 1.27, nd, 1.00, 1.14 (controls 0 of 18).
The variant GFSLNMYGIS / VIYSDGRRTAYIDSVK / GRAAGTFDS gave 0.42, 0.43, 0.88, 0.22, 0.46, 0.81 (controls 0 of 18).
The variant GFTLNEYGIS / VIYSDGRRTQYGDSVK / GRAAGTFDS gave 0.43, 0.45, 1.27, 1.54, 0.44, 0.69 (controls 0 of 18).
The variant GFELNEYGIS / VIYSDGRRTFYGDSVK / GRAAETFDQ gave 0.18, nd, -0.14, 0.56, -0.16, 0.26 (controls 0 of 18).
The variant GFQLNEYGIS / VIYADGRRTFYGDSVK / GVAAGTFDS gave -0.94, -0.01, -0.96, -0.47, -1.25, -0.45 (controls 0 of 18).
The variant GFQLNSYGIS / VIYSDGRRTFYGDSVK / GRHAGTFDS gave nd, nd, nd, nd, nd, nd (controls 0 of 18).
The variant GFTLNQYGIS / VIYSDGMRTFYSDSVK / GREAGTFDS gave -0.09, -0.16, -0.01, -0.14, -0.17, -0.29 (controls 0 of 18).
The variant GFHLNSYGIS / VIYSDGRRTFYSDSVK / GKLAGTFDS gave 1.22, 0.78, 0.83, 0.87, 0.88, 0.95 (controls 0 of 18).
The variant GFTLNEYGIS / VIYSDGRRTFYGDSVK / GRAAVTFDH gave nd, nd, nd, nd, nd, nd (controls 0 of 18).
The variant GFTLESYGIS / VIYSDGRRTFYGDSVK / GRAAGTFLQ gave nd, nd, 1.88, 2.57, 1.69, 2.53 (controls 0 of 18).
The variant GFDLNSYGIS / VIYSDGRRTFYIDSVK / GQAAGTFDM gave 0.98, 1.05, 1.27, 0.66, 0.50, 0.84 (controls 1 of 18).
The variant GFVLNDYGIS / VIYSDGRRTFYADSVK / GRAAGTFDE gave 1.08, 0.94, 0.79, 0.69, 0.90, 0.90 (controls 0 of 18).
The variant GFTLNEYGIS / VIYSDGRRTFYSDSVK / GHAAGTFDD gave 1.21, 0.66, 0.24, 0.69, 0.83, 0.47 (controls 2 of 18).
The variant GFWLNDYGIS / VIYSDGRRTEYGDSVK / GRAAGTFDS gave 0.60, 0.33, 0.88, 0.41, 1.29, 0.62 (controls 0 of 18).
The variant GFDLNEYGIS / VIYSDGRRTFYGDSVK / GRAAATFDQ gave nd, nd, nd, nd, nd, nd (controls 1 of 18).
The variant GFSLNSYGIS / VIYSDGRRTFYTDSVK / GMLAGTFDS gave 1.01, -0.47, -0.71, 0.21, -0.05, -0.27 (controls 0 of 18).
The variant GFSLNEYGIS / VIYSDGRRTFYTDVVK / GRFAGTFDS gave 1.24, 1.37, 0.78, 0.49, 1.03, 0.95 (controls 0 of 18).

Repeated from above, the 4 best binders with a signal in all replicates:

CDR-H1	CDR-H2	CDR-H3	log10 Kd (nM) by replicate	control signals
GFQLNEYGIS	VIYADGRRTFYGDSVK	GVAAGTFDS	-0.94, -0.01, -0.96, -0.47, -1.25, -0.45	0 of 18
GFTLNQYGIS	VIYSDGMRTFYSDSVK	GREAGTFDS	-0.09, -0.16, -0.01, -0.14, -0.17, -0.29	0 of 18
GFTLNEYGIS	VIYSDGRRTFYSDDVK	GRTAGTFDS	0.01, -0.16, -0.15, 0.08, -0.17, 0.00	1 of 18
GFDLNSYGIS	VIYSDGRRTFYDDSVK	GKLAGTFDS	0.23, -0.17, -0.60, 0.44, 0.33, -0.62	1 of 18

Three control strains display no target. For all heavy chain designs, 1% of the pairings with them gave a signal, with a median of 2.08 and one signal in twenty below 0.84, so weak values seen in few replicates may be background. Also given: how often the same scFv was detected with the empty control strains.
Of ten entries with the parent sequence, four were seen in most replicates (averages 0.34 to 2.37), three in one and three in none, so single entries are noisy.
The authors averaged sequences with at least three values out of six and counted those with two or fewer as poor binders.
A sequence measured in both rounds can read differently, since the two assays cover different ranges.